These results are taken from patent publication US20250032493A1, “Methods for Treating Diseases Using MALT1 Inhibitors” (RARIFIED BIOSCIENCES, INC., priority 2021, published 2025).

Several values for one entry are separate records, joined by “and”; a condition that tells them apart may be missing. Equal entries are not always repeated.

The subject of assay [1] is splenic Tregs. As to the kind of experiment: Rat CIA model: splenic Treg levels. To be noted: in vivo.
Assay [2] deals with splenic Tregs. To be noted: rat, in vivo.
Assay [3] has as its system rat collagen induced arthritis (CIA) model. Description: Rat CIA model: plasma and synovial cytokines, anti-collagen and total IgG. To be noted: in vivo.
Assay [4] shares this test system. Description: Rat collagen-induced arthritis model: clinical score. As to conditions: in vivo.

On to `CO[C@@H](C)c1c(NC(=O)Nc2ccnc(C(F)(F)F)c2)cnc2cc(Cl)nn12` [REO-981], for which, in the assay on Macrophages, the “sensitivity of LPS-stimulated macrophages to MALT1i” value is “insensitive”. The “decrease of CD25+FoxP3+ splenic Tregs” value in the assay with splenic Tregs [1] is “statistically significant decrease”. Moreover, the “Treg reduction in naïve compared with diseased animals” value in the assay with splenic Tregs [2] is listed as “more pronounced in naïve animals”. The “reduction in Treg cells” value in the assay on splenic Tregs [2] (1 mg/kg) is given as 50%. Besides, in assay [3], the “IL-6 levels in the plasma” value is “significantly reduced”; the “KC-GRO in plasma and synovial fluid” value is listed as “Significant inhibition”; the “TNFα in the synovial fluid” value was “Significant reduction”; the “anti-collagen antibodies in plasma” value was “significant reduction”. Also, in assay [3], the “total IgG levels” value is reported as “no effect”. Also, in the assay on human Tregs, the “FoxP3 expression of Tregs” value is “no effect”, the “ability of human Tregs to suppress naïve CD4+ T-cell proliferation” value is given as “did not reduce” and the “proliferative capacity of responder CD4+ T-cells” value is “decreased proliferative capacity”. The “pSTAT5 levels in Tregs” value with IL-2R signaling (pSTAT5) was “no effects”. In addition, in assay [4], the “reduction in the clinical score” value is 38% and 57%.
